This note sets out measurements from patent US8735391B2, “Synthesis of functionalized octahydro-isoquinolin-1-one-8-carboxamides, octahydro-isoquinolin-1-one-8-carboxylic esters and analogs, and therapeutic methods” (University of Kansas, priority 2008, dated 2014).

The chains behind the UniProt entries cited, without tags or fusion partners.
UniProt P41145, whole entry: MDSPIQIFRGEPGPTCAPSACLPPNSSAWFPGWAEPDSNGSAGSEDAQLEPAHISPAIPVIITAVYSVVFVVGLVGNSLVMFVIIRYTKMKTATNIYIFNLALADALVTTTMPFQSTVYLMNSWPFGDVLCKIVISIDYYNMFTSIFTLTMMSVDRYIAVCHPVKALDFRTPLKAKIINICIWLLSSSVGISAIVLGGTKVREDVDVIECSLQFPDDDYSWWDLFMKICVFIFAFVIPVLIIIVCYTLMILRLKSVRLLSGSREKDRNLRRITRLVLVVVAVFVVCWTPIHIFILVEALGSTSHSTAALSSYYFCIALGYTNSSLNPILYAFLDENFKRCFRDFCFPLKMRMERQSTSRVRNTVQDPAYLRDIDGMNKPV

For the first assay, the target named is T1, KOR (Homo sapiens, UniProt P41145). Briefly: [35S]GTPγS binding functional agonist assay on membranes of CHO cells expressing hKOR (reference agonist U69593). The format is biochemical. The settings on record: test compound at 10 micromolar; N=4; reference agonist = 100%; CHO-cell line expressing hKOR. Background: Binding of GTPγS marks nucleotide exchange on a G protein.
Consider `CCCCN1CCC2C=CCC(C(=O)Nc3nccs3)C2C1=O` (stereo not shown), for which the “KOR agonist (average percent efficacy relative to cognate agonist)” value stood at 93.8%. With `O=C(Nc1nccs1)[C@H]1CC=C[C@H]2CCN(Cc3ccccc3)C(=O)[C@@H]12` (relative stereo), the “KOR agonist (average percent efficacy relative to cognate agonist)” value was determined as 121.5%. With `O=C(Nc1nccs1)[C@H]1CC=C[C@H]2CCN(C3CCCCC3)C(=O)[C@@H]12` (relative stereo), the “KOR agonist (average percent efficacy relative to cognate agonist)” value is listed as 129.2%.

A further assay deals with T1, KOR. The assay is described as follows: Opioid secondary binding, KOR (Tables 4, 5, 8, 9). To be noted: read-out: KOR, Ki; Opioid secondary binding activity for Formula 10 analogs.
For orientation: Ki means a dissociation constant, usually derived from enzyme kinetics or from competition with a known ligand. With `CCCCN1CCC2C=CCC(C(=O)Nc3nccs3)C2C1=O` (stereo not shown), the Ki turned out to be 355 nM. The same measure, in the same setting: next, `O=C(Nc1nccs1)[C@H]1CC=C[C@H]2CCN(Cc3ccccc3)C(=O)[C@@H]12` (relative stereo): 200 nM; `O=C(NC1CCCCC1)[C@H]1CC=C[C@H]2CCN(Cc3ccccc3)C(=O)[C@@H]12`: 213 nM. With `O=C(Nc1nccs1)[C@H]1CC=C[C@H]2CCN(C3CCCCC3)C(=O)[C@@H]12` (relative stereo), the Ki was 160 nM.
